Measurements from PMC10253498 (RSC Advances, 2023).
Entries after “also recorded” stand apart in the source; their conditions may differ. Marks after values point to notes of the source that are not given here.

Chains of the proteins cited; added tags and fusions are not shown. Residues count along the entry.
UniProt P22303, 32-614, species assumed: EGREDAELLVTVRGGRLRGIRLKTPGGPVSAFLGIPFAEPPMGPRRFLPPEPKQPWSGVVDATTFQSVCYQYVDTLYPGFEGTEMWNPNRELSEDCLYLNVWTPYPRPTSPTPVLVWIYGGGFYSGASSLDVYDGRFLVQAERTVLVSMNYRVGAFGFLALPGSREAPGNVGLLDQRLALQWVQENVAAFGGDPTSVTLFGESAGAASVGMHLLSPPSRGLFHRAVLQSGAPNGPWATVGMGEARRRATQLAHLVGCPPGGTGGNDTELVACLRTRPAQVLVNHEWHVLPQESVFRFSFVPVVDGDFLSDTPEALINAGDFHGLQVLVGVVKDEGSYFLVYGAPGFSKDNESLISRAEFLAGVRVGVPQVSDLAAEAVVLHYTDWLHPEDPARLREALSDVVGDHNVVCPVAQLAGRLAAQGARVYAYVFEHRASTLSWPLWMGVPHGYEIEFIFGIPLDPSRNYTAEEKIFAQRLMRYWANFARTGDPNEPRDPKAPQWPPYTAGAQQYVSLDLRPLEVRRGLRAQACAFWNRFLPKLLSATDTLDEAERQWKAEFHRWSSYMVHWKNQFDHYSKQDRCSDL
UniProt P21397, whole entry: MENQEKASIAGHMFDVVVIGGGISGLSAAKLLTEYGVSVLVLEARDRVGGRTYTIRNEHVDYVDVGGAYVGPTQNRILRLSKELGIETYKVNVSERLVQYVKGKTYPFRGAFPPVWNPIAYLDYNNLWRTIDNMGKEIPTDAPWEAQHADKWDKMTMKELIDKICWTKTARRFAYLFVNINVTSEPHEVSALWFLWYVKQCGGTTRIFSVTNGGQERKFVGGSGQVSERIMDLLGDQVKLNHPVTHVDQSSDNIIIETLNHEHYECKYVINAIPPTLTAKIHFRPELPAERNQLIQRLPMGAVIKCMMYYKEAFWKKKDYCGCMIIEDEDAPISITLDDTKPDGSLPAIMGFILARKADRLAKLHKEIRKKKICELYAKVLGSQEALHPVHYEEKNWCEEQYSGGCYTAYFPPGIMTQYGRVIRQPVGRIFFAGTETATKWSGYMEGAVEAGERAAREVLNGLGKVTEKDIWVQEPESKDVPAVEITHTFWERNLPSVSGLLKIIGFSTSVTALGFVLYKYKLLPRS

Legend:
[1] = molecular target: T1, acetyl cholinesterase (AChE) (Homo sapiens, UniProt P22303)
[2] = molecular target: T1, acetyl cholinesterase (AChE); experiment: biochemical
[3] = molecular target: monoamine oxidase A (MAO-A, extracted) (Homo sapiens, UniProt P21397)

Structure (SMILES): Fc1ccccc1Nc1nnc(Cc2ccccc2C(F)(F)F)o1 [Compound 4c, N-(2-Fluorophenyl)-5-(2-(trifluoromethyl)benzyl)-1,3,4-oxadiazol-2-amine]
- inhibition against AChE (in words) [1]: moderate to weak inhibition
- AChE %age inhibition ([1]; test concentration not given): 36.12% ^c

Structure (SMILES): c1ccc(Nc2nnc(-c3ccncc3)o2)cc1 [Compound 4d, N-Phenyl-5-(pyridin-4-yl)-1,3,4-oxadiazol-2-amine]
- inhibition against AChE (in words) [1]: potent inhibition; also recorded: promising inhibitory effects
- IC50 [2]: 830 ± 7 nM

Structure (SMILES): CC(C)c1ccc(Nc2nnc(-c3ccc(C(F)(F)F)cc3)o2)cc1 [Compound 4m, N-(4-Isopropylphenyl)-5-(4-(trifluoromethyl)phenyl)-1,3,4-oxadiazol-2-amine]
- selectivity for MAO-A over MAO-B and AChE enzymes [3]: ~25 fold
- inhibition against AChE (in words) [1]: potent inhibition
- IC50 [2]: 2670 ± 29 nM

Structure (SMILES): Cc1ccccc1Nc1nnc(-c2ccccc2)o1 [Compound 4n, 5-Phenyl-N-(o-tolyl)-1,3,4-oxadiazol-2-amine]
- inhibition against AChE (in words) [1]: potent inhibition
- IC50 [2]: 1230 ± 969 nM
